Data as given in US20110284394A1, “Portable Electrochemical Multiphase Microreactor for Sensing Trace Chemical Vapors” (published 2011).

Sequences of proteins named here, by UniProt entry; tags and fusion partners are left off. Residues count along the entry.
UniProt O42275, 24-633 limits assumed: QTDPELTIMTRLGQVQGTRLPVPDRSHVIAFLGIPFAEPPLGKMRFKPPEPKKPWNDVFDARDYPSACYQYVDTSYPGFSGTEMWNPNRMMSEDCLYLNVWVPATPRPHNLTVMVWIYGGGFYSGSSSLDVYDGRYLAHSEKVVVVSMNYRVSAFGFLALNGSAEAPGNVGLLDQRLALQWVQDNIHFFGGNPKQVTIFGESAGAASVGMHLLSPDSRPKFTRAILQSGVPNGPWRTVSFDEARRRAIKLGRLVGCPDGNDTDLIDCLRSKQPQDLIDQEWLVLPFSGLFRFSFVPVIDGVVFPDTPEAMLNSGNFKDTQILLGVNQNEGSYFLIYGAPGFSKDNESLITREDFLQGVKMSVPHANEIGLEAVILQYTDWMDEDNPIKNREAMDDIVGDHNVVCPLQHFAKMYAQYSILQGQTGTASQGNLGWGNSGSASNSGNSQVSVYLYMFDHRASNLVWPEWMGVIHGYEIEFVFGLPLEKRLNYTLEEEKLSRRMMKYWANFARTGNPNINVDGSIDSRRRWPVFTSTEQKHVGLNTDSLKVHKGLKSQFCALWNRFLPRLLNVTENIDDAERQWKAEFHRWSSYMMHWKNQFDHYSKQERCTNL

Columns and labels:
electric eel AChE [1] = target: T1, electric eel AChE (Electrophorus electricus, UniProt O42275); test: microchannel sensor AChE inhibition by vapor, amperometric thiocholine oxidation current; settings: for AChE microsensor response to simulants and interferants: vapor exposure, response means AChE inhibition
electric eel AChE [2] = target: T1, electric eel AChE; test: beaker-scale (macro-scale) AChE inhibition by malathion, thiocholine oxidation current by cyclic voltammetry
[3] = about 52 ppb malathion in argon, 10 mL/min, 1.69 mM acetylthiocholine, pH 7.4, 0.013 U AChE

Row | SMILES | AChE microsensor response to simulants and interferants (electric eel AChE [1]) | percent inhibition, AChE in solution (free) (electric eel AChE [1]; [3]) | percent inhibition, immobilized AChE (electric eel AChE [1]; [3]) [%] | percent inhibition of thiocholine oxidation (electric eel AChE [2]; about 46 μM malathion, potential about 700 mV, 1.25 mM acetylthiocholine over immobilized AChE (18 U/mL), phosphate buffer pH 7.4) [%] | percent inhibition of enzyme (electric eel AChE [2]; after exposure to about 23 mM malathion, beaker cell) [%]
1 | Cc1ccccc1 | did not produce a response |  |  |  | 
2 | CCCCCCCCCCCC | did not produce a response |  |  |  | 
3 | CCOC(=O)CC(SP(=S)(OC)OC)C(=O)OCC (stereo not shown) | shows a response | about 0.6% | 33 | 100 | 100
